Measurements published in patent publication US5192747A, “Anticoagulant peptides” (Merrell Dow Pharmaceuticals Inc., priority 1991, dated 1993).
Where two headings read alike, the source gives them in different places.

Molecular target: Bovine thrombin (Bos taurus, UniProt P00735)
Assay: thrombin induced fibrin clot inhibition assay
Type: biochemical

SMILES | IC50 | IC50 (IC50 = peptide concentration giving half of control turbidity (405 nm), thrombin 0.2 pmol, diluted plasma (1:10), pH 7.4, 20° C., read-out: In vitro potency)
CC[C@H](C)[C@H](NC(=O)[C@@H]1CCCN1C(=O)[C@H](CCC(=O)O)NC(=O)[C@H](Cc1ccc(O)cc1)NC(=O)CCC(=O)O)C(=O)N1CCC[C@H]1C(=O)N[C@@H](CCC(=O)O)C(=O)N[C@@H](C)C(=O)N[C@@H](CC1CCCCC1)C(=O)N[C@@H](CC(N)=O)C(=O)O [compound 6, Suc--Tyr--Glu--Pro--Ile--Pro--Glu--Ala--Cha--Asn--OH] | < 25 µM | –
CC[C@H](C)[C@H](NC(=O)[C@H](CCC(=O)O)NC(=O)[C@H](CCC(=O)O)NC(=O)[C@H](Cc1ccccc1)NC(=O)[C@H](CC(=O)O)NC(=O)CN)C(=O)N[C@@H](CCC(=O)O)C(=O)N[C@@H](CCC(=O)O)C(=O)N[C@@H](Cc1ccc(O)cc1)C(=O)N[C@@H](CC(C)C)C(=O)N[C@@H](CCC(N)=O)C(=O)O [compound 2, H--Gly--Asp--Phe--Glu--Glu--Ile--Glu--Glu--Tyr--Leu--Gln--OH] | 25 to 200 µM | –
CC[C@H](C)[C@H](NC(=O)[C@@H]1CCCN1C(=O)[C@H](CCC(=O)O)NC(=O)[C@H](Cc1ccc(O)cc1)NC(=O)CCC(=O)O)C(=O)N1CCC[C@H]1C(=O)N[C@@H](CCC(=O)O)C(=O)N[C@@H](C)C(=O)N[C@@H](CC1CCCCC1)C(=O)N[C@H](CCC(=O)O)C(=O)O [compound 13, Suc--Tyr--Glu--Pro--Ile--Pro--Glu--Ala--Cha--D-Glu--OH] | < 25 µM | –
CC[C@H](C)[C@H](NC(=O)[C@@H]1CCCN1C(=O)[C@H](Cc1ccc2ccccc2c1)NC(=O)CCC(=O)O)C(=O)N1CCC[C@H]1C(=O)N[C@@H](CCC(=O)O)C(=O)N[C@@H](CCC(=O)O)C(=O)N[C@@H](C)C(=O)N[C@@H](CC1CCCCC1)C(=O)N[C@H](CCC(=O)O)C(=O)O [compound 9, Suc--Nap--Pro--Ile--Pro--Glu--Glu--Ala--Cha--D-Glu--OH] | – | < 25 µM
